Molecular target: T1, VE-cadherin VE-cad(1-5), five extracellular domains (Homo sapiens, UniProt P33151)
T1 chain: MQRLM
Assay: SPR

Protein sequences, listed by entry. Tags and fused reporters are not part of them. Lines headed by an entry give the natural chain unless they say otherwise; changes in a name come on top.
UniProt P33151: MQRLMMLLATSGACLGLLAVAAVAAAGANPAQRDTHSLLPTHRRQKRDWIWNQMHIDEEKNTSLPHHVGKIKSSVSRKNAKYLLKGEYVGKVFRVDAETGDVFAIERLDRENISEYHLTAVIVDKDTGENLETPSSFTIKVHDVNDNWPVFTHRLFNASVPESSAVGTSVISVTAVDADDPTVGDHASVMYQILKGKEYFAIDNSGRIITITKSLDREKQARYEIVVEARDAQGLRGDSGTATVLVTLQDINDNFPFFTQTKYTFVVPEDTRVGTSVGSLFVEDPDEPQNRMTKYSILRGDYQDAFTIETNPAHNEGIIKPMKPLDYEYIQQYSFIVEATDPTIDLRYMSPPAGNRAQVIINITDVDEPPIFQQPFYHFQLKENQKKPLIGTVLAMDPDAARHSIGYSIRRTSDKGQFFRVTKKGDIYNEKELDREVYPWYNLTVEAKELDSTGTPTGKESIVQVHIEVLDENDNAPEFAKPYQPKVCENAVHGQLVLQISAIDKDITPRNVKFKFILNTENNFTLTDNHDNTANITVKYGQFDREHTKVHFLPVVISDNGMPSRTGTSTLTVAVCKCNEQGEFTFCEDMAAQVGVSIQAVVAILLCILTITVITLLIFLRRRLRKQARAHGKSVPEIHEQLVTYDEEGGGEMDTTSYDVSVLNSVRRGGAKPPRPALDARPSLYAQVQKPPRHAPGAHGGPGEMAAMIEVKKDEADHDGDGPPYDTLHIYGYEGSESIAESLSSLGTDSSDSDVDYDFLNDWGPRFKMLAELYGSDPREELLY

B1: NDSK-II fragment of fibrin NDSK-II (central region) (protein)
chain 1: ADSGEGDFLAEGGGVRGPRVVERHQSACKDSDWPFCSDEDWNYKCPSGCRMKGLIDEVNQDFTNRINKLKNSLFEYQKNNKDSHSLTTNIMEILRGDFSSANNRDNTYNRVSEDLRSRIEVLKRKVIEKVQHIQLLQKNVRAQLVDMKRLEVDIDIKIRSCRGSCSRALAREVDLKDYEDQQKQLEQVIAKDLLPSRDRQHLPLIKMKPVPDLVPGNFKSQLQKVPPEWKALTDMPQMRMELERPGGNEITRGGSTSYGTGSETESPRNPSSAGSWNSGSSGPGSTGNRNPGSSGTGGTATWKPGSSGPGSTGSWNSGSSGTGSTGNQNPGSPRPGSTGTWNPGSSERGSAGHWTSESSVSGSTGQWHSESGSFRPDSPGSGNARPNNPDWGTFEEVSGNVSPGTRREYHTEKLVTSKGDKELRTGKEKVTSGSTTTTRRSCSKTVTKTVIGPDGHKEVTKEVVTSEDGSDCPEAMDLGTLSGIGTLDGFRHRHPDEAAFFDTASTGKTFPGFFSPMLGEFVSETESRGSESGIFTNTKESSSHHPGIAEFPSRGKSSSYSKQFTSSTSYNRGDSTFESKSYKMADEAGSEADHEGTHSTKRGHAKSRPVRDCDDVLQTHPSGTQSGIFNIKLPGSSKIFSVYCDQETSLGGWLLIQQRMDGSLNFNRTWQDYKRGFGSLNDEGEGEFWLGNDYLHLLTQRGSVLRVELEDWAGNEAYAEYHFRVGSEAEGYALQVSSYEGTAGDALIEGSVEEGAEYTSHNNMQFSTFDRDADQWEENCAEVYGGGWWYNNCQAANLNGIYYPGGSYDPRNNSPYEIENGVVWVSFRGADYSLRAVRMKIRPLVTQ
chain 2: QGVNDNEEGFFSARGHRPLDKKREEAPSLRPAPPPISGGGYRARPAKAAATQKKVERKAPDAGGCLHADPDLGVLCPTGCQLQEALLQQERPIRNSVDELNNNVEAVSQTSSSSFQYMYLLKDLWQKRQKQVKDNENVVNEYSSELEKHQLYIDETVNSNIPTNLRVLRSILENLRSKIQKLESDVSAQMEYCRTPCTVSCNIPVVSGKECEEIIRKGGETSEMYLIQPDSSVKPYRVYCDMNTENGGWTVIQNRQDGSVDFGRKWDPYKQGFGNVATNTDGKNYCGLPGEYWLGNDKISQLTRMGPTELLIEMEDWKGDKVKAHYGGFTVQNEANKYQISVNKYRGTAGNALMDGASQLMGENRTMTIHNGMFFSTYDRDNDGWLTSDPRKQCSKEDGGGWWYNRCHAANPNGRYYWGGQYTWDMAKHGTDDGVVWMNWKGSWYSMRKMSMKIRPFFPQQ
chain 3: YVATRDNCCILDERFGSYCPTTCGIADFLSTYQTKVDKDLQSLEDILHQVENKTSEVKQLIKAIQLTYNPDESSKPNMIDAATLKSRKMLEEIMKYEASILTHDSSIRYLQEIYNSNNQKIVNLKEKVAQLEAQCQEPCKDTVQIHDITGKDCQDIANKGAKQSGLYFIKPLKANQQFLVYCEIDGSGNGWTVFQKRLDGSVDFKKNWIQYKEGFGHLSPTGTTEFWLGNEKIHLISTQSAIPYALRVELEDWNGRTSTADYAMFKVGPEADKYRLTYAYFAGGDAGDAFDGFDFGDDPSDKFFTSHNGMQFSTWDNDNDKFEGNCAEQDGSGWWMNKCHAGHLNGVYYQGGTYSKASTPNGYDNGIIWATWKTRWYSMKKTTMKIIPFNRLTIGEGQQHHLGGAKQVRPEHPAETEYDSLYPEDDL
- Kd: 97 nM
